In ChEMBL document CHEMBL2406958, “Development of a chimeric c-Src kinase and HDAC inhibitor” (ACS Med Chem Lett, 2013):

What was measured:
Format in all cases: functional
[1] = test system: U-251; assay: Cytotoxicity against human U251 cells after 48 hrs by SRB assay
[2] = Cytotoxicity against human NCI60 cells after 48 hrs by SRB assay
[3] = test system: MDA-MB-231; assay: Cytotoxicity against human MDA-MB-231 cells after 48 hrs by SRB assay

Question: What does the source list for `O=C(CCCCCCC(=O)Nc1ccccc1)NO` [VORINOSTAT]?
Answer: GI50 [1]: 1530 nM; GI50 [2]: 530 nM; GI50 [3]: 2320 nM
